Results taken from US20230210861A1 (priority 2020, published 2023).

The chains behind the UniProt entries cited, without tags or fusion partners. Residues count along the entry.
UniProt P36544, 23-502: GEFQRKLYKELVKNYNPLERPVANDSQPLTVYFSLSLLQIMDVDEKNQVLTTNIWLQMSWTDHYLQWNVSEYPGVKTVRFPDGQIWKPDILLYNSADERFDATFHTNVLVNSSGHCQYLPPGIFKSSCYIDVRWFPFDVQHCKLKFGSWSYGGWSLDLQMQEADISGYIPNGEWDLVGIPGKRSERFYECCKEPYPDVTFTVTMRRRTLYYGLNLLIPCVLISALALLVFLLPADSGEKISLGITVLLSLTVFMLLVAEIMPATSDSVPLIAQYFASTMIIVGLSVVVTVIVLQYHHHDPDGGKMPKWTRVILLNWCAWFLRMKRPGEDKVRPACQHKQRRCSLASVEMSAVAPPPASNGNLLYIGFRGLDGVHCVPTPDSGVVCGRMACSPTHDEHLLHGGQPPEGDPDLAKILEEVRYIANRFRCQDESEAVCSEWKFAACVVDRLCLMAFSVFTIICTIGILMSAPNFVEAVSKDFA

Key:
[1] = target: T1, human alpha7 nAChR (Homo sapiens, UniProt P36544); assay: Agonist activity at human alpha7 nAChR expressed in Xenopus oocytes (two-electrode voltage clamp); assay type: cell-based
Text: Agonist Preparation: See Example 1.

[2] = target: T1, human alpha7 nAChR; assay: Desensitization / antagonistic activity, cumulative exposure in the low concentration range, alpha7 in Xenopus oocytes; assay type: cell-based; conditions: concentrations up to 300 nM; in words

In the case of “varenicline tartrate [reference compound]”, the “effect on the subsequent ACh-evoked current, alpha7” value ([1]; after the agonist concentration series) is reported as “no significant inhibition of the subsequent ACh-evoked current”, the “agonist character at nAChR alpha7” value ([1]; in words) is reported as “full agonist” and the EC50 ([1]; test concentrations 0.1-300 uM, for compound 1 salts only an estimation given the small fraction of current evoked) is reported as ~11 µM and ~15 µM. For the same substance, the “inhibition of ACh-evoked current on sustained exposure, alpha7” value [2] was “caused inhibition for concentrations in the hundreds of nanomolar range; also recorded: causes a desensitization”.

Where “and” joins values, the source holds several entries; their conditions need not be identical. Equal entries are not always repeated. Entries after “also recorded” stand apart in the source; their conditions may differ.
